Data published in ChEMBL document CHEMBL1132182, “2,6-Difluorophenol as a bioisostere of a carboxylic acid: bioisosteric analogues of gamma-aminobutyric acid” (J Med Chem, 1999).

By UniProt entry, the sequences of proteins in these tests, tags left out. Where a name states a change or a piece, a line headed by the entry shows the natural chain unless it says otherwise.
UniProt P80147: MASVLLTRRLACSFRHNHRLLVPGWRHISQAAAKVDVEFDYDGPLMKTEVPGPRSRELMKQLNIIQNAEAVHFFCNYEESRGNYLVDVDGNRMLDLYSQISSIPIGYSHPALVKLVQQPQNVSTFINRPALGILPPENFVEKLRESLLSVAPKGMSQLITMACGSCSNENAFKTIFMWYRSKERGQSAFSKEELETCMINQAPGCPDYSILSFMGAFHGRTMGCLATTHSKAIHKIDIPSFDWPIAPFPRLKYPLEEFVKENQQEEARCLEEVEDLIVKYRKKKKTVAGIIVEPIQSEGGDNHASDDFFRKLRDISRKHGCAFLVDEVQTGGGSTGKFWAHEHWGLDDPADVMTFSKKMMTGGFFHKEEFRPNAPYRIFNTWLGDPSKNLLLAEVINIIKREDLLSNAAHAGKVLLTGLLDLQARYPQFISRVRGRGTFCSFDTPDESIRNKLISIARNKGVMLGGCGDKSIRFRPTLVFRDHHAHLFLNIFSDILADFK

Target: 4-aminobutyrate aminotransferase, mitochondrial (Sus scrofa, UniProt P80147)

Compound | Ki
NCc1cc(F)c(O)c(F)c1 | 11 mM
NCc1ccc(F)c(O)c1F | 6.3 mM
